Measured affinities in a library of Ab-14 heavy chain variants

From the AlphaSeq antibody data of Engelhart et al. 2022 (doi:10.1038/s41597-022-01779-4), copy in the FLAb collection.

The target is the same throughout: PDVDLGDISGINAS, from the HR2 region of SARS-CoV-2 spike.

Each scFv is VH, a (GGGGS)3 linker, VL, as in the parent Ab-14, and differs from it in the CDRs of the heavy chain only.
VH: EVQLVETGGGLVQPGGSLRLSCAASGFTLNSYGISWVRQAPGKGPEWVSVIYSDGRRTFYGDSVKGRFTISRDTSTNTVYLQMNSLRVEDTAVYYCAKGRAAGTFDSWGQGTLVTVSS
VL: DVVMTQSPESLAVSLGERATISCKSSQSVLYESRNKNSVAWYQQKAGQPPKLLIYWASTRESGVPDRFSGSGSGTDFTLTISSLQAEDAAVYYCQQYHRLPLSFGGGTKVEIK

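Phage display of a naive human antibody library on the peptide gave the parent. The library (AAYL49) carries one to three amino acid substitutions per variant, with no insertions or deletions. The scFvs were displayed on barcoded MATa yeast, the peptide on MATalpha yeast. Binding brings cells together so that they mate, and sequencing counts the barcode pairs among the diploids. Scores were corrected for input abundance and mapped to Kd with protein pairs of known affinity run in the same pool. Each pool was mated in three replicate cultures.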

The parent's heavy chain CDRs are GFTLNSYGIS, VIYSDGRRTFYGDSVK, GRAAGTFDS; each variant's own CDRs replace them letter for letter.
Numbers give log10(Kd / nM), so 0 is 1 nM and 3 is 1 µM. Smaller is tighter.
Replicates are averaged; those with no signal do not enter the mean.
"n.d." means that the variant was in the library but no mating with the target was seen in that replicate; the authors take this as a sign of poor binding, and no number exists.
Background: pairings of library AAYL49 with three empty control strains gave a value in 15% of cases (median 4.06, 5th percentile 2.83). Values in that range, when seen in few replicates, are hard to tell from nonspecific mating. Also given: how often the same scFv was detected with the empty control strains, with their mean in brackets.
For reference, the parent read 0.65 as the reference entry and 4.11 (one replicate of three) as a member of this library.

| # | CDR-H1 | CDR-H2 | CDR-H3 | replicates, log10 nM | mean, log10 nM | empty controls |
|---|---|---|---|---|---|---|
| 1 | GFTLNQYGIS | VIYSDGRRTFYGISVK | GRAAGEFDS | n.d. / n.d. / n.d. | n.d. | 1 of 9 (3.18) |
| 2 | GFTLNSYGRS | VIYSDGRRTFYGESVK | GRAAGTSDS | n.d. / n.d. / n.d. | n.d. | 0 of 9 |
| 3 | GFTLNSYGIS | LIYSDGRRTFGGRSVK | GRAAGTFDS | n.d. / n.d. / n.d. | n.d. | 0 of 9 |
| 4 | GFTLNSYGIS | VIYSKGRRTFYGTSVK | GRAKGTFDS | n.d. / n.d. / n.d. | n.d. | 1 of 9 (4.00) |
| 5 | GFTLNSYRIS | VIYSDGRRTFYGDDMK | GRAAGTFDS | n.d. / n.d. / n.d. | n.d. | 0 of 9 |
| 6 | GFTLNSYGIS | VIYSDGRRTFYGDSFK | GRAAGTFDL | 0.44 / 0.65 / 0.38 | 0.49 | 0 of 9 |
| 7 | GFWLNSYGIS | VIYLDGRRTFYGDSVK | IRAAGTFDS | 5.03 / n.d. / n.d. | 5.03 | 3 of 9 (4.21) |
| 8 | GFTLNSYGIS | VYGSDGRRTFYGDSVK | GRAAGTVDS | n.d. / n.d. / 3.15 | 3.15 | 0 of 9 |
| 9 | GFVLNSWGYS | VIYSDGRRTFYGDSVK | GRAAGTFDS | n.d. / n.d. / n.d. | n.d. | 3 of 9 (4.28) |
| 10 | GFTLNSYDIS | VIYSDGRRTFYGDNDK | GRAAGTFDS | n.d. / n.d. / n.d. | n.d. | 0 of 9 |
| 11 | GFTLNSYGIS | VIISDGRRTFYDDSVK | GRQAGTFDS | 4.54 / 3.50 / n.d. | 4.02 | 1 of 9 (2.90) |
| 12 | GFDLNSYGIS | VIYSDGRNTHYGDSVK | GRAAGTFDS | 2.00 / 2.23 / 2.88 | 2.37 | 1 of 9 (5.09) |
| 13 | GFTLNSYGIS | VIYSDGRRTFYGWPVK | GRAAGTFDP | n.d. / n.d. / n.d. | n.d. | 2 of 9 (4.87) |
| 14 | GFTLNSYGIS | WPYSDGRRTFYGDSVK | GRAAGTFDG | n.d. / n.d. / n.d. | n.d. | 0 of 9 |
| 15 | GPTLNSYGIS | VIYSDGRVTFYGDSVK | GRAAGTFDS | 6.28 / n.d. / n.d. | 6.28 | 3 of 9 (4.11) |

Second part, the sequence after the result:

| # | replicates, log10 nM | mean, log10 nM | empty controls | CDR-H1 | CDR-H2 | CDR-H3 |
|---|---|---|---|---|---|---|
| 16 | n.d. / 2.87 / n.d. | 2.87 | 0 of 9 | GFTLNSYGIS | VIYSDGRCTFDGDSVK | GRANGTFDS |
| 17 | 2.72 / 2.08 / 2.39 | 2.40 | 6 of 9 (4.16) | GFTLNSYGIS | VIYSDGRRTFCQDSVK | GRAGGTFDS |
| 18 | n.d. / n.d. / n.d. | n.d. | 3 of 9 (4.52) | GFTLNSYGIS | VVYSYGRRTFYGDSWK | GRAAGTFDS |
| 19 | n.d. / n.d. / n.d. | n.d. | 1 of 9 (4.12) | GFTLNSYGIS | VSYSDGRRPFYGDSVK | LRAAGTFDS |
| 20 | 4.38 / n.d. / n.d. | 4.38 | 2 of 9 (4.28) | GFTQNSYGIS | VIYSDGRRTFYGDSPK | MRAAGTFDS |
| 21 | 2.86 / 2.76 / 2.63 | 2.75 | 1 of 9 (4.34) | SFTLNSYGIS | VIYSDGRRTFYGDSVK | GRAWGTEDS |
| 22 | 3.73 / 3.03 / 4.73 | 3.83 | 6 of 9 (4.47) | GFFLNSYGIS | VIYSDGRRTFYPDSVK | GRACGTFDS |
| 23 | n.d. / n.d. / n.d. | n.d. | 0 of 9 | GFTLNSYGIS | VIYHDGRFTFYGDSVN | GRAAGTFDS |
| 24 | n.d. / n.d. / 5.89 | 5.89 | 2 of 9 (4.85) | GFTLNWYGIS | VIYSDGRRTFYGDSVK | GGAAGTHDS |
| 25 | 3.20 / n.d. / n.d. | 3.20 | 0 of 9 | FFTLNSYGIS | VIYSDGRMTFYGDSVK | GRMAGTFDS |
| 26 | n.d. / n.d. / n.d. | n.d. | 0 of 9 | GFTLNSYGIS | VIYSSGRRTFYGDSVK | GRQYGTFDS |
| 27 | n.d. / 3.65 / 4.61 | 4.13 | 4 of 9 (4.43) | WFTLNSYGIS | YIFSDGRRTFYGDSVK | GRAAGTFDS |
| 28 | n.d. / n.d. / n.d. | n.d. | 1 of 9 (3.78) | GFTLNSYGIR | MEYSDGRRTFYGDSVK | GRAAGTFDS |
| 29 | n.d. / n.d. / n.d. | n.d. | 0 of 9 | GFTLNSYGIS | VIYRDGRRVSYGDSVK | GRAAGTFDS |
| 30 | 4.53 / 4.53 / 4.16 | 4.41 | 8 of 9 (4.45) | GFTTNSYGIS | VISSDGRRTFYQDSVK | GRAAGTFDS |

The 4 strongest on average among those seen in every replicate, once more:

| CDR-H1 | CDR-H2 | CDR-H3 | replicates, log10 nM | mean, log10 nM | empty controls |
|---|---|---|---|---|---|
| GFTLNSYGIS | VIYSDGRRTFYGDSFK | GRAAGTFDL | 0.44 / 0.65 / 0.38 | 0.49 | 0 of 9 |
| GFDLNSYGIS | VIYSDGRNTHYGDSVK | GRAAGTFDS | 2.00 / 2.23 / 2.88 | 2.37 | 1 of 9 (5.09) |
| GFTLNSYGIS | VIYSDGRRTFCQDSVK | GRAGGTFDS | 2.72 / 2.08 / 2.39 | 2.40 | 6 of 9 (4.16) |
| SFTLNSYGIS | VIYSDGRRTFYGDSVK | GRAWGTEDS | 2.86 / 2.76 / 2.63 | 2.75 | 1 of 9 (4.34) |